From US20140170096A1, “SUNSCREEN COMPOSITIONS” (priority 2011, published 2014) come the findings set out here.

The subject of data set [1] is viruses in water surrounding coral nubbins. Kind of data set: Viral abundance and viral enrichment in seawater surrounding coral nubbins (microcosm incubation). As to conditions: ratio of viral abundances, end vs start of incubation.
The subject of data set [2] is prokaryotes in water surrounding coral nubbins. Briefly: Prokaryotic (bacterial) abundance and enrichment in seawater surrounding coral nubbins (microcosm incubation). As to conditions: incubation 12 h; seawater surrounding Acropora sp. nubbins.

Take `CO[C@@]12[C@H](COC(N)=O)C3=C(C(=O)C(C)=C(N)C3=O)N1C[C@@H]1N[C@@H]12` [MITO, Mitomycin C, reference compound]: the “Viral enrichment factor (VEF)” value in data set [1] is given as 14.33.
With `Cc1c(C)c2c(c(C)c1O)CC[C@@](C)(CCC[C@H](C)CCC[C@H](C)CCCC(C)C)O2` [System D16, Alpha-tocopherol], the “Bacterial abundance (total bacterial number, TBN)” value in data set [2] was found to be 1.18E+06.
